Key:
BCL-2 = target: T1, BCL-2 (Homo sapiens, UniProt P10415); assay: Fluorescence polarization direct binding assay
T1 construct: containing the plasmid encoding C-terminal deleted GST-BCL-2; made in house; host or cells: Escherichia coli BL21 (DE3)

The chains behind the UniProt entries cited, without tags or fusion partners. Residues count along the entry.
UniProt P10415, 1-218 limits assumed: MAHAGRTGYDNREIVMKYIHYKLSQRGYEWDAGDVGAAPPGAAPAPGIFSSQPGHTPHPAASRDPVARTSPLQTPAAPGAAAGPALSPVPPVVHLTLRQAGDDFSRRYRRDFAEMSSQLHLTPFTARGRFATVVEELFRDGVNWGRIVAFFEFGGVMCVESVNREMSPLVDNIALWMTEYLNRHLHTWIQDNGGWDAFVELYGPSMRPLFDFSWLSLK

GST-BCL-2 = target: T2, GST-BCL-2 (Homo sapiens, UniProt P10415); assay: Fluorescence polarization competitive binding (displacement of FITC-BID BH3)
T2 construct: containing the plasmid encoding C-terminal deleted GST-BCL-2; made in house; host or cells: Escherichia coli BL21 (DE3)

`CCCC[C@H](NC(=O)[C@H](CO)NC(=O)[C@H](CC(=O)O)NC(=O)CNC(=O)[C@@H](NC(=O)[C@H](CCC(N)=O)NC(=O)[C@H](C)NC(=O)[C@H](CC(C)C)NC(=O)[C@H](Cc1c[nH]cn1)NC(=O)[C@H](CCCNC(=N)N)NC(=O)[C@H](C)NC(=O)[C@@H](NC(=O)[C@H](CC(N)=O)NC(=O)[C@H](CCCNC(=N)N)NC(=O)[C@@H](NC(=O)[C@@H](NC(=O)[C@H](CC(=O)O)NC(=O)[C@@H](N)CCC(=O)O)[C@@H](C)CC)[C@@H](C)CC)[C@@H](C)CC)C(C)C)C(=O)N[C@@H](CC(=O)O)C(=O)N[C@@H](CCCNC(=N)N)C(=O)N[C@@H](CO)C(=O)N[C@H](C(=O)N[C@@H](Cc1c[nH]c2ccccc12)C(N)=O)[C@@H](C)CC` [BID BH3, reference compound] was tested, and the Kd (BCL-2) was 269 nM and the IC50 (GST-BCL-2) was 838 nM.
